Experiment [1] concerns L1 wild-type C. elegans (N2). The following applies: normoxia.
Experiment [2] deals with L1 wild-type C. elegans (N2). Nature of the experiment: microbe, parasite or virus in culture. The following applies: Caenorhabditis elegans, 144 h, read-out: C. elegans L1 development and viability (6-day growth).

Each structure is given as a SMILES string.

With `CC(C)Cc1ccc(C(C)c2nc3ccccc3n2C)cc1` (centres unmarked) [NPD8790], the “concentration up to which there is very little effect on C. elegans normoxic growth” value in experiment [1] is “greater than 500 µM”.
The viability is a read-out of living cells in per cent, often relative to untreated cells. On to `Fc1ccc(C(c2ccc(F)cc2)N2CCN(C/C=C/c3ccccc3)CC2)cc1` [Flunarizine], for which, in experiment [2], the viability at 0.4 µM turned out to be 98.1%, the viability at 6.3 µM came to 92.6%, the viability at 25 µM worked out at 96.2% and the viability at […] turned out to be 95.3%.
